From ChEMBL document CHEMBL4680083, “Identification of Tricyclic Agonists of Sphingosine-1-phosphate Receptor 1 (S1P) Employing Ligand-Based Drug Design” (J Med Chem, 2016)

Assay: Selectivity index, ratio of EC50 for agonist activity at human S1P3 expressed in CHO cell membranes to EC50 for agonist activity at human S1P1 expressed in CHO cell membranes
Format: cell-based

Structure (SMILES) | Ratio EC50
O=C(O)C1CN(Cc2ccc3c(c2)CCc2c-3noc2-c2onc(-c3ccccc3)c2C(F)(F)F)C1 | 7500
O=C(O)C1CN(Cc2ccc(-c3noc(-c4onc(-c5ccccc5)c4C(F)(F)F)n3)cc2)C1 | 3400
